# Laboratory results from patent US10272061B2, “Compositions and methods for unoccluded transdermal oxybutynin therapy” (Allergan Sales, LLC, priority 2000, dated 2019).
# Assay: In vitro skin flux study of free form oxybutynin gels, modified Franz diffusion cell
# Assay type: in vitro ADME
# Settings: Table 15, mean ± SD, n = 3 skin donors
# Procedure: In vitro skin flux studies of Examples 9 through 11 were conducted using full-thickness skin samples (approximately 500 μm) obtained from skin banks. The full-thickness skin samples were stored at −5° C. until experiments were conducted. The gender, age, sex and anatomical site information for each donor was recorded when available.
# The method used to apply a thin film of gel to the surface of the skin was adapted from Chia-Ming Chiang et al., Bioavailability assessment of topical delivery systems: in vitro delivery of minoxidil from prototypical semi-solid formulations, IJP, 49:109-114, 1989, which is incorporated herein by reference. The stratum corneum side of a piece of skin was attached to one side of an adhesive-coated metal shim having a circular hole of 0.64 cm^2 cut in the center. The shim-membrane assembly was placed on top of a flat glass surface, and approximately 15 μL of a formulation was dispensed into the central cavity. With a microscope slide, the gel was spread across the surface of the skin, loading a dose of approximately 7 μL over the 0.64 cm^2 diffusional surface area. The applied dose was approximately 11 μL of gel per cm^2 diffusional surface area, which is typical for topical applications.
# The gel-loaded shim-membrane assembly was clamped between the donor and receiver compartments of a modified Franz diffusion cell with the dermal side facing the receiver solution. The receiver compartment was filled with 0.02% (w/v) NaN3 to maintain sink conditions on the receiver side throughout the duration of the experiment. The donor compartment was unoccluded and open to the atmosphere. Cells were placed in a water bath heated with circulating water and calibrated to maintain the skin surface temperature at (32±1)° C.
# At predetermined time points, the entire contents of the receiver compartment was collected for quantifying the amount of drug, and the receiver compartment refilled with fresh receptor medium, taking care to eliminate any air bubbles at the skin/solution interface. Each of the samples were analyzed using high performance liquid chromatography (HPLC). The cumulative amount of drug permeated per unit area at any time t (Qt, μg/cm^2) was determined over a 24-hr period as follows:
# [formula] where, Cn is the concentration (μg/mL) of the drug in the receiver sample at the corresponding sample time, V is the volume of fluid in the receiver chamber, and A is the diffusional area of the cell (0.64 cm^2).
# For the studies of Examples 8 through 10, typically four replicates were obtained per skin per system. A comparison of the means of the values obtained for a given system from each skin indicated differences in permeation due to differences in skin.
# [1] = optically pure isomer as oxybutynin chloride gel Et/W/Gl/G/D1/N 73.2/17.9/1.0/2.0/4.4/1.5
# [2] = optically pure isomer as oxybutynin free base gel Et/W/Gl/G/D2/H 73.2/18.3/1.0/2.0/4.0/1.5
Substance,Qt (t = 24 hours) [1] [μg/cm^2/t],Qt (t = 24 hours) [2] [μg/cm^2/t]
(R)-oxybutynin,6.98 ± 4.26,7.08 ± 5.43
(S)-oxybutynin,6.24 ± 3.77,6.87 ± 5.35
